Article PMC12102759 (Protein Science : A Publication of the Protein Society, 2025)

Tested on: AP2M1 MU
Type: binding, human

Row | Substance | PSSM value of the substitution, averaged over the two overlapping peptides
1 | VSDIDYVPLKSATA(averaged) S11M (VSDIDYVPLKMATA) | 0
2 | VSDIDYVPLKSATA(averaged) S11N (VSDIDYVPLKNATA) | 0.02971
3 | VSDIDYVPLKSATA(averaged) S11P (VSDIDYVPLKPATA) | 0.007236
4 | VSDIDYVPLKSATA(averaged) S11Q (VSDIDYVPLKQATA) | 0.4502
5 | VSDIDYVPLKSATA(averaged) S11R (VSDIDYVPLKRATA) | 0
6 | VSDIDYVPLKSATA(averaged) S11S | 0.002623
7 | VSDIDYVPLKSATA(averaged) S11T (VSDIDYVPLKTATA) | 1.716e-5
8 | VSDIDYVPLKSATA(averaged) S11V (VSDIDYVPLKVATA) | 0.007984
9 | VSDIDYVPLKSATA(averaged) S11W (VSDIDYVPLKWATA) | 0.007112
10 | VSDIDYVPLKSATA(averaged) S11Y (VSDIDYVPLKYATA) | 0.007115
11 | VSDIDYVPLKSATA(averaged) T13A (VSDIDYVPLKSAAA) | 0.002125
12 | VSDIDYVPLKSATA(averaged) T13D (VSDIDYVPLKSADA) | 0.00856
13 | VSDIDYVPLKSATA(averaged) T13E (VSDIDYVPLKSAEA) | 0.02009
14 | VSDIDYVPLKSATA(averaged) T13F (VSDIDYVPLKSAFA) | 0.1122
15 | VSDIDYVPLKSATA(averaged) T13G (VSDIDYVPLKSAGA) | 0.0009749
16 | VSDIDYVPLKSATA(averaged) T13H (VSDIDYVPLKSAHA) | 0.2618
17 | VSDIDYVPLKSATA(averaged) T13I (VSDIDYVPLKSAIA) | 0.00143
18 | VSDIDYVPLKSATA(averaged) T13K (VSDIDYVPLKSAKA) | 0
19 | VSDIDYVPLKSATA(averaged) T13L (VSDIDYVPLKSALA) | 0.002153
20 | VSDIDYVPLKSATA(averaged) T13M (VSDIDYVPLKSAMA) | 0.2245
21 | VSDIDYVPLKSATA(averaged) T13N (VSDIDYVPLKSANA) | 0.0004027
22 | VSDIDYVPLKSATA(averaged) T13P (VSDIDYVPLKSAPA) | 0.01385
23 | VSDIDYVPLKSATA(averaged) T13Q (VSDIDYVPLKSAQA) | 0.2617
24 | VSDIDYVPLKSATA(averaged) T13R (VSDIDYVPLKSARA) | 0.002792
25 | VSDIDYVPLKSATA(averaged) T13S (VSDIDYVPLKSASA) | 0.03255

Row | Substance | PSSM value of the substitution, averaged over the two overlapping peptides
26 | VSDIDYVPLKSATA(averaged) T13T | 0.0127
27 | VSDIDYVPLKSATA(averaged) T13V (VSDIDYVPLKSAVA) | 0.01576
28 | VSDIDYVPLKSATA(averaged) T13W (VSDIDYVPLKSAWA) | 0.02159
29 | VSDIDYVPLKSATA(averaged) T13Y (VSDIDYVPLKSAYA) | 0.004843
30 | VSDIDYVPLKSATA(averaged) V1A (ASDIDYVPLKSATA) | 0
31 | VSDIDYVPLKSATA(averaged) V1D (DSDIDYVPLKSATA) | 0.000188
32 | VSDIDYVPLKSATA(averaged) V1E (ESDIDYVPLKSATA) | 0.01737
33 | VSDIDYVPLKSATA(averaged) V1F (FSDIDYVPLKSATA) | 0.0006898
34 | VSDIDYVPLKSATA(averaged) V1H (HSDIDYVPLKSATA) | 0.4257
35 | VSDIDYVPLKSATA(averaged) V1I (ISDIDYVPLKSATA) | 0.04855
36 | VSDIDYVPLKSATA(averaged) V1K (KSDIDYVPLKSATA) | 0.0001655
37 | VSDIDYVPLKSATA(averaged) V1L (LSDIDYVPLKSATA) | 8.8387e-5
38 | VSDIDYVPLKSATA(averaged) V1M (MSDIDYVPLKSATA) | 0.0001577
39 | VSDIDYVPLKSATA(averaged) V1N (NSDIDYVPLKSATA) | 0.0002899
40 | VSDIDYVPLKSATA(averaged) V1P (PSDIDYVPLKSATA) | 0.005836
41 | VSDIDYVPLKSATA(averaged) V1Q (QSDIDYVPLKSATA) | 0.0001975
42 | VSDIDYVPLKSATA(averaged) V1R (RSDIDYVPLKSATA) | 0.4088
43 | VSDIDYVPLKSATA(averaged) V1S (SSDIDYVPLKSATA) | 0.003253
44 | VSDIDYVPLKSATA(averaged) V1T (TSDIDYVPLKSATA) | 0.005968
45 | VSDIDYVPLKSATA(averaged) V1V | 0.006376
46 | VSDIDYVPLKSATA(averaged) V1W (WSDIDYVPLKSATA) | 0.07578
47 | VSDIDYVPLKSATA(averaged) V1Y (YSDIDYVPLKSATA) | 0
48 | VSDIDYVPLKSATA(averaged) V7A (VSDIDYAPLKSATA) | 0.004325
49 | VSDIDYVPLKSATA(averaged) V7D (VSDIDYDPLKSATA) | 0
50 | VSDIDYVPLKSATA(averaged) V7E (VSDIDYEPLKSATA) | 0.2865

Row | Substance | PSSM value of the substitution, averaged over the two overlapping peptides
51 | VSDIDYVPLKSATA(averaged) V7F (VSDIDYFPLKSATA) | 0.4299
52 | VSDIDYVPLKSATA(averaged) V7G (VSDIDYGPLKSATA) | 0
53 | VSDIDYVPLKSATA(averaged) V7H (VSDIDYHPLKSATA) | 0.06898
54 | VSDIDYVPLKSATA(averaged) V7I (VSDIDYIPLKSATA) | 0.003008
55 | VSDIDYVPLKSATA(averaged) V7K (VSDIDYKPLKSATA) | 0.01977
56 | VSDIDYVPLKSATA(averaged) V7L (VSDIDYLPLKSATA) | 0.1296
57 | VSDIDYVPLKSATA(averaged) V7M (VSDIDYMPLKSATA) | 0.0006304
58 | VSDIDYVPLKSATA(averaged) V7N (VSDIDYNPLKSATA) | 0
59 | VSDIDYVPLKSATA(averaged) V7P (VSDIDYPPLKSATA) | 0
60 | VSDIDYVPLKSATA(averaged) V7Q (VSDIDYQPLKSATA) | 0.001583
61 | VSDIDYVPLKSATA(averaged) V7R (VSDIDYRPLKSATA) | 0
62 | VSDIDYVPLKSATA(averaged) V7S (VSDIDYSPLKSATA) | 0
63 | VSDIDYVPLKSATA(averaged) V7T (VSDIDYTPLKSATA) | 0
64 | VSDIDYVPLKSATA(averaged) V7V | 0.05527
65 | VSDIDYVPLKSATA(averaged) V7W (VSDIDYWPLKSATA) | 0.0001944
66 | VSDIDYVPLKSATA(averaged) V7Y (VSDIDYYPLKSATA) | 0.0002298
67 | VSDIDYVPLKSATA(averaged) Y6A (VSDIDAVPLKSATA) | 0
68 | VSDIDYVPLKSATA(averaged) Y6D (VSDIDDVPLKSATA) | 0
69 | VSDIDYVPLKSATA(averaged) Y6E (VSDIDEVPLKSATA) | 0
70 | VSDIDYVPLKSATA(averaged) Y6F (VSDIDFVPLKSATA) | 0
71 | VSDIDYVPLKSATA(averaged) Y6G (VSDIDGVPLKSATA) | 0
72 | VSDIDYVPLKSATA(averaged) Y6H (VSDIDHVPLKSATA) | 0
73 | VSDIDYVPLKSATA(averaged) Y6I (VSDIDIVPLKSATA) | 0
74 | VSDIDYVPLKSATA(averaged) Y6K (VSDIDKVPLKSATA) | 0
